Molecular target: Prothrombin (Homo sapiens, UniProt P00734)
Test: Inhibitory activity against human thrombin

- IC50: 0.331 µM
SMILES: CC1CNc2c(cccc2S(=O)(=O)N[C@@H](CCCNC(=N)N)C(=O)N2CC[C@@H](C)C[C@@H]2C(=O)O)C1 (stereo partly specified) [ARGATROBAN]
